Results reported in patent US10968215B2 (SHANGHAI HAIHE PHARMACEUTICAL CO., LTD., priority 2016, dated 2021).

By UniProt entry, the sequences of proteins in these tests, tags left out.
UniProt Q15910, whole entry Y641F: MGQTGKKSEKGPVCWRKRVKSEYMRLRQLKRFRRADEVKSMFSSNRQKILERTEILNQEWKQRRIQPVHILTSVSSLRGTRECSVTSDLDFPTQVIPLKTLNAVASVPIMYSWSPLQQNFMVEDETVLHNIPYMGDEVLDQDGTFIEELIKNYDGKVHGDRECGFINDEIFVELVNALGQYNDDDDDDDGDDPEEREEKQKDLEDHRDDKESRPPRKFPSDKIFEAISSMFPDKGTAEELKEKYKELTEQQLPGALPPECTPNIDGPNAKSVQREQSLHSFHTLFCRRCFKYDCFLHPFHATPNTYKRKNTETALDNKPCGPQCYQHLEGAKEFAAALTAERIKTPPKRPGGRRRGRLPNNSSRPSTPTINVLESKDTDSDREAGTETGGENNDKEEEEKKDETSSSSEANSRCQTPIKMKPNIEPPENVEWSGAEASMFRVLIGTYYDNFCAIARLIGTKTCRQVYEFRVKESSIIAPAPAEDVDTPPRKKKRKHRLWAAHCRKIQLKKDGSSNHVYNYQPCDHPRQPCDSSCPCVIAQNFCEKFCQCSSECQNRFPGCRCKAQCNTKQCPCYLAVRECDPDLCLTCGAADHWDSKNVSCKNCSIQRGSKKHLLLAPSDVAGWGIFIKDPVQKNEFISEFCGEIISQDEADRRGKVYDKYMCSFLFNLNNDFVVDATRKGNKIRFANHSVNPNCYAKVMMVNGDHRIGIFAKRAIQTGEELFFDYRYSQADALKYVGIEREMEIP

Molecular target: PRC2 complex (EZH2 Y641F/EED/SUZ12/RbAp48/AEBP2) (Homo sapiens (Human), UniProt Q15910, Y641F)
Test: Activity of a compound to PRC2 complex (EZH2 Y641F), HTRF
Conditions: read-out: IC50 (EZH2_Y641F), class symbols

Question: For “N-((4,6-dimethyl-2-oxo-1,2-dihydropyridin-3-yl)methyl)-6-methyl-5-(1-morpholinylethyl)-1-(3,5-dimethylphenyl)indolizine-7-amide [Example 94]”, which IC50 is on record?
Answer: < 0.1 µM
